Results from ChEMBL document CHEMBL1129738, “3-Aryl-1,2-diacetamidopropane derivatives as novel and potent NK-1 receptor antagonists” (J Med Chem, 1996).
The source made the active and inactive calls. The calls are words filed in the database; no cut-off is given here.

The chains behind the UniProt entries cited, without tags or fusion partners.
UniProt P16177, whole entry: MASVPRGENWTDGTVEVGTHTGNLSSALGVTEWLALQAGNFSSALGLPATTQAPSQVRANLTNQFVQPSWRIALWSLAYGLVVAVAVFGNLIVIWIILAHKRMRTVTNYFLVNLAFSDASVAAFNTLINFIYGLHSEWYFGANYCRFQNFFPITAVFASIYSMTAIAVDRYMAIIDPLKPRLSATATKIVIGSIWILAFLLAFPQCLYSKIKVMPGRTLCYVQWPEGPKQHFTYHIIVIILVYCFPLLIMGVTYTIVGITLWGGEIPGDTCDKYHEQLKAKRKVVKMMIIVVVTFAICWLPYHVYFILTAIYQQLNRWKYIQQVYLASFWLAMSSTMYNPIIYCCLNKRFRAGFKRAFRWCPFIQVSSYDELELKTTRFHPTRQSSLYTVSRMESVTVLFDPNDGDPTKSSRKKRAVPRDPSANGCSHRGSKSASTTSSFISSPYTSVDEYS
UniProt P79218, whole entry: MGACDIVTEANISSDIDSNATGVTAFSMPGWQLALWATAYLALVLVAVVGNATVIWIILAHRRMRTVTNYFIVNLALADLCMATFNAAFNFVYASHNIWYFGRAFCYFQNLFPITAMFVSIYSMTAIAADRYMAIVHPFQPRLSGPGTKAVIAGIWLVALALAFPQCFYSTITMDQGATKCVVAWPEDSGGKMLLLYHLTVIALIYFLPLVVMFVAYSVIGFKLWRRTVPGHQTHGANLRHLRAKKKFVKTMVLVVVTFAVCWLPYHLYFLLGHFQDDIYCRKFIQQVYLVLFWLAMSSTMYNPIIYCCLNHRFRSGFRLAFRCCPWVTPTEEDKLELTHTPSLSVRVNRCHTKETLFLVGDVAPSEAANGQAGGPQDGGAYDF

Columns and labels:
[1] = biological target: Neuromedin-K receptor (Rattus norvegicus) (UniProt P16177)
[2] = biological target: Substance-K receptor (Oryctolagus cuniculus) (UniProt P79218)

Row | pA2 [1] | pA2 [2] | Compound
1 | inactive | – | COc1ccccc1CN(C[C@H](Cc1c[nH]c2ccccc12)NC(=O)CN1CCN(c2ccccc2)CC1)C(C)=O
2 | inactive | inactive | COc1ccccc1CN(C[C@@H](Cc1c[nH]c2ccccc12)NC(=O)CN1CCN(c2ccccc2)CC1)C(C)=O
